Results on two molecules are retold here after PMC11124525, “Pharmacokinetic–Pharmacodynamic Correlation Analysis of Rhodiola crenulata in Rats with Myocardial Ischemia” (Pharmaceuticals, 2024).

The procedure of this data set:
A series concentration mixed reference solution with different concentrations was added to 100 μL plasma, and was treated according to the method under Section 4.6 to obtain the matrix standard curve sample. Samples with concentrations of 400, 100, and 10 ng/mL, respectively, were taken as quality control (QC) samples of high, medium, and low concentrations (HQC, MQC, LQC). The method was validated, including linearity, inter-day/intra-day precision, repeatability, stability, extraction recovery, and matrix effect, according to FDA bioanalytical method validation guidelines.

Where two headings read alike, the source gives them in different places.

With `OC[C@H]1O[C@@H](OCCc2ccc(O)cc2)[C@H](O)[C@@H](O)[C@@H]1O` [Salidroside, salidroside], under “rat, 50 ng/mL”, the “Stability RE (%)” value is 101.3%. For `O=C(O)c1cc(O)c(O)c(O)c1` [Gallic Acid, gallic acid], the “Stability RE (%)” value (rat plasma, −80 °C, 10 days, spiked 50 ng/mL, n = 6) came to 98.31%.
